Each structure is given as a SMILES string.

Amino acid sequences for entries named in this document (tags omitted). Residues count along the entry.
UniProt O75417, 1780-2590: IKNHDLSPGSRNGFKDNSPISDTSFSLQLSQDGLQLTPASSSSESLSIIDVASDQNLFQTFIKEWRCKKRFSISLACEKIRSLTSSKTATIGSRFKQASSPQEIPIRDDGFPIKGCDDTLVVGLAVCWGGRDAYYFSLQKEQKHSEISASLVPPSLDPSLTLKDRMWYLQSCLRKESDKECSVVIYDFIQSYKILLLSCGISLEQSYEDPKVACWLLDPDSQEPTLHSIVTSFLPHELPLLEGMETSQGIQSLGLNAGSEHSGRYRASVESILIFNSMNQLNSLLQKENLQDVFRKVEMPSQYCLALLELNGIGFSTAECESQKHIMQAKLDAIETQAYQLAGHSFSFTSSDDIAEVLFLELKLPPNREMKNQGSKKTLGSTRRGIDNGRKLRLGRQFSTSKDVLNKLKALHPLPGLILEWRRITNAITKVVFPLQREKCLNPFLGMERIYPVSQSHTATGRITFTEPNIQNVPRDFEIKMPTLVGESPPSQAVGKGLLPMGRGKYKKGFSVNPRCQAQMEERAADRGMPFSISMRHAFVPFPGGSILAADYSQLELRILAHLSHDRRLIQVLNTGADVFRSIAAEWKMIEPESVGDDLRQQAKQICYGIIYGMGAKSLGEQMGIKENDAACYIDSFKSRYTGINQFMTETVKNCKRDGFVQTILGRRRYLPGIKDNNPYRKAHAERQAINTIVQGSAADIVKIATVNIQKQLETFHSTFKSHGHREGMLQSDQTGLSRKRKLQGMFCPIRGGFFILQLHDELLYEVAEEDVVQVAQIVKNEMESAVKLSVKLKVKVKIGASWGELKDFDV

The test deals with isolated polymerase domain (I1780-V2590) of DNA polymerase theta (Polθ) (Homo sapiens (Human), UniProt O75417). As to the kind of experiment: biochemical.

Compound `CC(CCOc1ccc(-c2nc3c(OC4(C)CC4)ncnc3n2Cc2ccccc2C2CC2)c(Cl)c1)C(=O)O` (racemic) [Example T598, 4-(3-chloro-4-(9-(2-cyclopropylbenzyl)-6-(1-methylcyclopropoxy)-9H-purin-8-yl)phenoxy)-2-methylbutanoic acid] gave a half-inhibitory concentration (IC50) of 6.31 nM.
With `CC(CCOc1ccc(-c2nc3c(OC4(C)CC4)ncnc3n2Cc2cccc(C3CC3)c2)c(Cl)c1)C(=O)O` (racemic) [Example T601, 4-(3-chloro-4-(9-(3-cyclopropylbenzyl)-6-(1-methylcyclopropoxy)-9H-purin-8-yl)phenoxy)-2-methylbutanoic acid] the figure was 3.98 nM; with `COc1ccc(C)cc1Cn1c(-c2ccc(OCCC(C)C(=O)O)cc2Cl)nc2c(OC3(C)CC3)ncnc21` (racemic) [Example U1, 4-(3-chloro-4-(9-(2-methoxy-5-methylbenzyl)-6-(1-methylcyclopropoxy)-9H-purin-8-yl)phenoxy)-2-methylbutanoic acid], 5.01 nM.
For `COc1ccc(F)cc1Cn1c(-c2ccc(OCCC(C)C(=O)O)cc2Cl)nc2c(OC3(C)CC3)ncnc21` (racemic) [Example U2, 4-(3-chloro-4-(9-(5-fluoro-2-methoxybenzyl)-6-(1-methylcyclopropoxy)-9H-purin-8-yl)phenoxy)-2-methylbutanoic acid], half-maximal inhibition (IC50) required 5.01 nM.
To `COc1c(Cl)cccc1Cn1c(-c2ccc(OCCC(C)C(=O)O)cc2Cl)nc2c(OC3(C)CC3)ncnc21` (racemic) [Example U3, 4-(3-chloro-4-(9-(3-chloro-2-methoxybenzyl)-6-(1-methylcyclopropoxy)-9H-purin-8-yl)phenoxy)-2-methylbutanoic acid] belongs 12.6 nM; to `COc1ccccc1Cn1c(-c2ccc(OCCC(C)C(=O)O)cc2Cl)nc2c(OC3(C)CC3)ncnc21` (racemic) [Example U4, 4-(3-chloro-4-(9-(2-methoxybenzyl)-6-(1-methylcyclopropoxy)-9H-purin-8-yl)phenoxy)-2-methylbutanoic acid], 6.31 nM.
With `CC(CCOc1ccc(-c2nc3c(OC4(C)CC4)ncnc3n2Cc2ccccc2F)c(Cl)c1)C(=O)O` (racemic) [Example U5, 4-(3-chloro-4-(9-(2-fluorobenzyl)-6-(1-methylcyclopropoxy)-9H-purin-8-yl)phenoxy)-2-methylbutanoic acid] the figure was 6.31 nM.
Consider `CC(CCOc1ccc(-c2nc3c(OC4(C)CC4)ncnc3n2Cc2cccc(F)c2)c(Cl)c1)C(=O)O` (racemic) [Example U6, 4-(3-chloro-4-(9-(3-fluorobenzyl)-6-(1-methylcyclopropoxy)-9H-purin-8-yl)phenoxy)-2-methylbutanoic acid], for which the IC50 is 6.31 nM.
With `CC(CCOc1ccc(-c2nc3c(OC4(C)CC4)ncnc3n2Cc2ccc(C#N)cc2)c(Cl)c1)C(=O)O` (racemic) [Example U7, 4-(3-chloro-4-(9-(4-cyanobenzyl)-6-(1-methylcyclopropoxy)-9H-purin-8-yl)phenoxy)-2-methylbutanoic acid] the figure was 7.94 nM; with `CC(CCOc1ccc(-c2nc3c(OC4(C)CC4)ncnc3n2Cc2cc(Cl)ccc2C#N)c(Cl)c1)C(=O)O` (racemic) [Example U9, 4-(3-chloro-4-(9-(5-chloro-2-cyanobenzyl)-6-(1-methylcyclopropoxy)-9H-purin-8-yl)phenoxy)-2-methylbutanoic acid], 5.01 nM; with `CC(CCCc1ccc(-c2nc3c(OC4(C)CC4)ncnc3n2Cc2ccccc2C#N)c(Cl)c1)C(=O)O` (racemic) [Example U12, 5-(3-chloro-4-(9-(2-cyanobenzyl)-6-(1-methylcyclopropoxy)-9H-purin-8-yl)phenyl)-2-methylpentanoic acid], 7.94 nM.
`CC(CCOc1ccc(-c2nc3c(OC4(C)CC4)ncnc3n2Cc2c(F)cccc2C#N)c(Cl)c1)C(=O)O` (racemic) [Example U13, 4-(3-chloro-4-(9-(2-cyano-6-fluorobenzyl)-6-(1-methylcyclopropoxy)-9H-purin-8-yl)phenoxy)-2-methylbutanoic acid] showed a concentration for half-maximal inhibition (IC50) of 20 nM.

The record behind these values is patent US20250195530A1, “POLQ INHIBITORS” (ASTRAZENECA AB, priority 2022, published 2025).
